From patent US20160184322A1 (priority 2013, published 2016)

Test system: P-glycoprotein
Assay: P-glycoprotein protein abundance in penumbral region of injured brain (FIG. 6)
Format: in vivo, rodents
Conditions: 72 hours post-injury, compared to vehicle and sham, p<0.05

SMILES | protein abundance of P-glycoprotein (PGP) in the penumbral region
CC(=O)[C@@H]1CC[C@@H]2[C@H]3CCC4=CC(=O)CC[C@@]4(C)[C@@H]3CC[C@]21C [ent-Prog, ent-progesterone] | increase
CC(=O)[C@H]1CC[C@H]2[C@@H]3CCC4=CC(=O)CC[C@]4(C)[C@H]3CC[C@]12C [Prog, progesterone] | increase
